According to ChEMBL document CHEMBL4422672 (J Med Chem, 2019):

Assays:
Homo sapiens [1] = species on record: Homo sapiens; assay: Selectivity index, ratio of IC50 for displacement of [3H]CP55,940 to human CB1 receptor expressed in cell membranes after 90 mins by liquid scintillation counting to IC50 for inhibition of human recombinant MAGL using 4-NPA as substrate after 30 mins; format: cell-based
Homo sapiens [2] = species on record: Homo sapiens; assay: Selectivity index, ratio of IC50 for displacement of [3H]CP55,940 to human CB2 receptor expressed in cell membranes after 90 mins by liquid scintillation counting to IC50 for inhibition of human recombinant MAGL using 4-NPA as substrate after 30 mins; format: cell-based
Homo sapiens [3] = species on record: Homo sapiens; assay: Selectivity index, ratio of IC50 for inhibition of FAAH in human U937 cell homogenates using [ethanolamine-1-3H]AEA as substrate after 15 mins by liquid scintillation spectroscopy to IC50 for inhibition of human recombinant MAGL using 4-NPA as substrate after 30 mins; format: tissue-based
Homo sapiens [4] = species on record: Homo sapiens; assay: Selectivity index, ratio of IC50 for inhibition of human ABHD6 expressed in HEK293 cell homogenates pre-incubated for 30 mins in presence of [1,2,3-3H]2-OG by liquid scintillation spectroscopy to IC50 for inhibition of human recombinant MAGL using 4-NPA as substrate after 30 mins; format: tissue-based
Homo sapiens [5] = species on record: Homo sapiens; assay: Selectivity index, ratio of IC50 for inhibition of human ABHD12 expressed in HEK293 cell homogenates pre-incubated for 30 mins in presence of [1,2,3-3H]2-OG by liquid scintillation spectroscopy to IC50 for inhibition of human recombinant MAGL using 4-NPA as substrate after 30 mins; format: tissue-based

Measured: Ratio IC50

CC(C)c1ccc(C(=O)C2CCN(C(=O)c3cc(O)ccc3F)CC2)cc1
> 100: all assays above
